# Binding of CDR-mutated scFvs to a peptide of the spike HR2 region

Values reported by Li et al. 2023, doi:10.1038/s41467-023-39022-2 (FLAb copy).

All variants were tested on one target, the spike HR2 peptide PDVDLGDISGINAS (SARS-CoV-2).

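The starting antibody came from a phage panning campaign against this peptide. This is the validation round: designs drawn from the data on random variants, tested in the same kind of assay. Group labels follow the data file (Ctrl: baseline library sampled from a position-specific scoring matrix, with some repeated check sequences; Rand: our label for a block that the file lists under HC and that is probably the random mutants of the ten best first-round binders; En: ensemble of fine-tuned language models; GP: Gaussian process model; GPLM: also part of the Gaussian process libraries; HC: hill climbing; Gen: genetic algorithm; Gibbs: Gibbs sampling; a sequence that several methods proposed may carry one label only). The assay is AlphaSeq: two haploid yeast populations carry antibody and antigen on their surface. After mating in shaken culture at 30 °C for 16 h, diploids were selected and their barcode pairs sequenced. Each replicate has its own calibration line, from reference interactions of the BCL2 family. Each pool was mated in six replicate cultures.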

The variants keep the light chain, the linker and the frameworks of Ab-14 (scFv order VH, a 15-residue (Gly4Ser)3 linker, VL).
VH: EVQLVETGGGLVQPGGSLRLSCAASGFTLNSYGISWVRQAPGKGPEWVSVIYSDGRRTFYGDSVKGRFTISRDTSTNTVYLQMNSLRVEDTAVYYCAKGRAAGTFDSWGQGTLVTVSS
VL: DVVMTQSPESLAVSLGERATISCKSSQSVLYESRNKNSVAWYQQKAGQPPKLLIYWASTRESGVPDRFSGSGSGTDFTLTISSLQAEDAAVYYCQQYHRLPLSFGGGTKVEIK

Variants are written as CDR1, CDR2 and CDR3 of the heavy chain (limits as in the source). Parent: GFTLNSYGIS, VIYSDGRRTFYGDSVK, GRAAGTFDS.
Values are apparent Kd, the geometric mean of the replicates that gave a signal; lower means stronger binding.
Where no diploid with the target was found in any replicate, the entry reads "no signal": below detection, most likely a poor binder, though not proof of it.

CDR-H1	CDR-H2	CDR-H3	group	apparent Kd	detected
GFDLNEYGIS	VIYADGMRKAYSDSVK	GNVAGTFDV	En_Gen	110 pM	6 of 6
GFSLNEYGIS	VIYSDGRRTFYSDSVK	GSAAGTFDS	GPLM_Gen	1.5 nM	6 of 6
GFTLNSYGIS	VIYRDGRRTFYGDSVK	AEAAGTFDE	Ctrl	no signal	0 of 6
GFDLNEYGIS	VIYADGRRTFYADSVK	GEVAGTFVT	En_HC	620 pM	5 of 6
GFTLNSYGIS	VIYSDGRRTFYGDSYK	GDAAGTFDS	Ctrl	no signal	0 of 6
GFDLDEYGIS	VIYADGRRSAILESVK	GKIAGTLDA	En_Gibbs	290 pM	6 of 6
GFTLNDYGIS	VIYSDGRRTFYKDSVK	GKAAGTFTS	GP_HC	no signal	0 of 6
GFTLESYGIS	VIYSDGRRTFYGDSVK	GQAAGTFDT	GPLM_Gibbs	17 nM	6 of 6
GFTLDDYGIS	VIYSDGRRTGYGDSVK	GRAAGTFDS	Ctrl	970 pM	6 of 6
GFDLNEYGIS	VIYADGVRTAYADSVK	GNEAGTFDV	En_Gen	980 pM	4 of 6
GFDLNEYGIS	VIYADGRRTAYSDNVK	GEVAGTFDV	En_Gen	700 pM	6 of 6
GFTLDSYGIS	VISSDGRRTFYGDSVK	GRAAGTALS	Rand	no signal	0 of 6
HFTLNEYGIS	VIYSDGRRTFYRDSVK	GRTAGTFDS	GP_HC	no signal	0 of 6
GFDLDEYGIS	VIYADGRRTAYIDSVK	GNVAGTFDL	En_Gen	270 pM	6 of 6
KFDLNSYGIS	VIYSDGRRTFYADSVK	GKTAGTFDS	GP_Gen	790 pM	6 of 6
GFDIGEYGVS	VIYADGKRMAYAWKVK	GKEAGTFIL	En_Gibbs	no signal	0 of 6
GFDLNEYGIS	VIYADGRRTAYADSVK	GENAGTFDI	En_Gen	270 pM	6 of 6
GFDLNEYGIS	VIYADGVRSAYADSVK	GQNAGTFDV	En_Gen	300 pM	6 of 6
GFDLNSYGIS	VIYSDGRRTAYGDSVK	GREAGTFDS	GPLM_Gibbs	2.1 nM	6 of 6
GFDLNEYGIS	VIYADGKRTFYSDSVK	GNEAGTFDV	En_HC	690 pM	6 of 6
GFDLNEYGIS	VIYADGLRTAYADSVK	GNVAGTFDI	En_Gen	600 pM	6 of 6
RETLWSYGIS	VIYSDGRRTFYGDSVK	GRAAGTFDS	Ctrl	no signal	0 of 6
GFTLNEYGIS	VIYSDGQRTFYSDSVK	GRAAGRFDS	GP_HC	no signal	0 of 6
GFTLNSYGIS	VIYSDGKRTFYIDSVK	GRQAGTFDS	GPLM_HC	no signal	0 of 6
GFKLNSYGIS	VIYSDGRRTFYHDSVK	GRTAGTFDS	GPLM_Gen	5.5 nM	5 of 6
GFDLDEYGIS	VIYADGKRTSYQADVK	GVQVGNALV	En_Gibbs	no signal	0 of 6
GFQLDEYGIS	VIYADGLRTAYKDTVK	GSDTGLFMI	En_Gibbs	no signal	0 of 6
GFDLNEYGIS	VIYADGVRTAYADDVK	GQNAGTFDL	En_Gen	27 nM	5 of 6
GFDLDEYGIS	VIYADGQRTFYIDSVK	GETAGTFDV	En_HC	290 pM	6 of 6
GFNLDEFGIS	VIYADGIRTFYLDSFK	GENVNAVDT	En_Gibbs	no signal	0 of 6
GFDLEDYGIS	VIYADGRRTAYSDSVK	GEAAGTFDV	En_HC	1.2 µM	1 of 6
GFTLNSYGIS	MIYSDGRRTFYADSVK	GRAAGTFDK	Ctrl	no signal	0 of 6
GFDLNEYGIS	VIYADGVRKAYSDSVK	GNVAGTFDI	En_Gen	430 pM	6 of 6
GFDLNEYGIS	VIYADGQRTAYSDSVK	GNNAGTFDV	En_Gen	270 pM	6 of 6
GFDLNEYGIS	VIYADGRRTAYGDSVK	GETAGTFDQ	En_HC	230 pM	6 of 6
GFTLESYGIS	VIYADGRRTFYGDAVK	GRAAGTFKS	GP_HC	4.9 µM	2 of 6
GFDLNEYGIS	VIYADGRRTFYVDSVK	GGNAGTFDV	En_HC	52 pM	6 of 6
GFTLNSYGIS	VIYSDGRRTFYIDSVK	GRAAGTFDT	Ctrl	18 nM	4 of 6
GFTLNSYGIS	VIYADGRRTFYGDSVK	GRAAGTYKL	GPLM_HC	37 nM	1 of 6
GFSLNRYGIS	VIYSDGRRTFYGDSVK	GQTAGTFDS	GPLM_Gen	20 nM	5 of 6
GFDLNSYGIS	VIMSDGRRTFYGDSVK	GRAAGWFNS	Rand	no signal	0 of 6
GFDLDSYGIS	VIYADGRRKAYHDSVK	GQNGSVSFV	En_Gibbs	no signal	0 of 6
GGNLDEYGIS	VIYADGKRRQYVDNVK	GSHADMFIM	En_Gibbs	no signal	0 of 6
GFTLNSYGIS	VMYSDGRRTFYGDSVK	GAAAGTFDS	Ctrl	11 nM	2 of 6
QFTLNSYGIS	VMYSDGRRTSYIDSVK	GRAPGTFDS	Ctrl	120 nM	2 of 6
GFSLNSYGIS	VIYSDGMRTFYGDQVK	GFAAGGFDS	Ctrl	330 nM	3 of 6
GFDLNEYGIS	VIYADGSRTAYADNVK	GEVAGTFDV	En_Gen	1.1 nM	6 of 6

7 of these entries, quoted again:

CDR-H1	CDR-H2	CDR-H3	group	apparent Kd	detected
GFSLNRYGIS	VIYSDGRRTFYGDSVK	GQTAGTFDS	GPLM_Gen	20 nM	5 of 6
GFDLNEYGIS	VIYADGSRTAYADNVK	GEVAGTFDV	En_Gen	1.1 nM	6 of 6
GFNLDEFGIS	VIYADGIRTFYLDSFK	GENVNAVDT	En_Gibbs	no signal	0 of 6
GFDLNEYGIS	VIYADGVRTAYADSVK	GNEAGTFDV	En_Gen	980 pM	4 of 6
GFDLNEYGIS	VIYADGRRTFYVDSVK	GGNAGTFDV	En_HC	52 pM	6 of 6
GFTLNSYGIS	VIYSDGRRTFYIDSVK	GRAAGTFDT	Ctrl	18 nM	4 of 6
GFDLNEYGIS	VIYADGRRTAYSDNVK	GEVAGTFDV	En_Gen	700 pM	6 of 6

The authors' rule: three or more of the six replicates give a measured affinity, fewer mean a poor binder.
A sequence measured in both rounds can read differently, since the two assays cover different ranges.
Nonspecific signal, from three strains lacking the peptide, appeared in 1% of pairings of all heavy chain designs, centred on 120 nM (5% of these signals below 7.0 nM); values are not corrected for it.